The record followed here is patent US20250326733A1, “A NEW ROUTE FOR SY[…] CHIRAL CANNABINOIDS FROM COUMARINS” (University of Florida Research Foundation, Inc., priority 2021, published 2025).

The chains behind the UniProt entries cited, without tags or fusion partners.
UniProt P34972, whole entry: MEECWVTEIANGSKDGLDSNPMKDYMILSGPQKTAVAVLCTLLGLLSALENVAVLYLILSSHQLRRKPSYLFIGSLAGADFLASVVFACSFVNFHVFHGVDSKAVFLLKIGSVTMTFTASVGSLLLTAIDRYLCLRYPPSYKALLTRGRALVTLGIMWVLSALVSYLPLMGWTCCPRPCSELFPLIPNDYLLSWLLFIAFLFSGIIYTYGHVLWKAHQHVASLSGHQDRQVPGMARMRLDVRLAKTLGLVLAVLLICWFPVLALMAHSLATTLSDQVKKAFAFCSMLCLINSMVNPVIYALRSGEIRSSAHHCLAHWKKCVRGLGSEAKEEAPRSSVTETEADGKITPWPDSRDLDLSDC

The test deals with hCB2R (Homo sapiens, UniProt P34972). Briefly: Binding affinity at human cannabinoid receptor 2.

The term Ki denotes a measure of affinity in units of concentration, obtained from inhibition or displacement. Take `C=C(C)[C@@H]1CCC(C)=C[C@H]1c1c(O)cc(CCCCC)cc1O` [CBD, cannabidiol, reference compound]: the Ki came out at 1410 nM.
